Data as given in patent publication US20180148429A1 (SELVITA S.A., priority 2015, published 2018).

Sequences of proteins named here, by UniProt entry; tags and fusion partners are left off.
UniProt Q13882, whole entry: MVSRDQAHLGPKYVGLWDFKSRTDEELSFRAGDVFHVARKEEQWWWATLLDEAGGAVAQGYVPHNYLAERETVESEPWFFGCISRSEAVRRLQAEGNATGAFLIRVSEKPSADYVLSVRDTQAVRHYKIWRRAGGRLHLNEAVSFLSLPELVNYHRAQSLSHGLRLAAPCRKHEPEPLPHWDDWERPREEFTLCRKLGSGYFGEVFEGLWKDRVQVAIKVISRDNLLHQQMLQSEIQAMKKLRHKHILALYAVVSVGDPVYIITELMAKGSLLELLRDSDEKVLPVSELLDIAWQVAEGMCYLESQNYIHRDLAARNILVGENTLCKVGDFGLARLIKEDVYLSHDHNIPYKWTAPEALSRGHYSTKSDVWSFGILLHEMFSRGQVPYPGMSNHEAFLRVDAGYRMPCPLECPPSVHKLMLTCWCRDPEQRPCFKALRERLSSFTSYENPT
UniProt Q16875, whole entry: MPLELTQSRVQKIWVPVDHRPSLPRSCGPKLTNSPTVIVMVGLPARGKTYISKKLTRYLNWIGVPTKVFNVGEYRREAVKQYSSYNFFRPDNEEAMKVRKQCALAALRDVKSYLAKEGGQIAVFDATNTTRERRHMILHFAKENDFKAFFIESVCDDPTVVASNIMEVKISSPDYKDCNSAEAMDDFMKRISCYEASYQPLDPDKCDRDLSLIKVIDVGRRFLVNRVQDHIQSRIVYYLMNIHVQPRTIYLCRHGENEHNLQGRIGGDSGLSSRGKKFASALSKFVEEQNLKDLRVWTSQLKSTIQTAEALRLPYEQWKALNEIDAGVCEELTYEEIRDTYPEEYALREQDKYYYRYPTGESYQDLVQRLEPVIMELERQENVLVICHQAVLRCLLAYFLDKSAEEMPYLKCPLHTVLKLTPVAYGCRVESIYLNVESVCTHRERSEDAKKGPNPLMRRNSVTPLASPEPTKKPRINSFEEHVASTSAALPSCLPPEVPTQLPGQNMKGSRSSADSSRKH

Columns and labels:
[1] = target: BRK (PTK6 protein tyrosine kinase 6) (Homo sapiens, UniProt Q13882); assay: BRK (PTK6 protein tyrosine kinase 6) IC50 determination assay (in vitro kinase assay, ADP-Glo Max); type: biochemical; details: read-out: BRK IC50, ATP 1600 uM (Km), Poly(Glu, Tyr) 160 uM, 75 nM PTK6, 45 min, RT
[2] = target: Human recombinant His-tagged PFKFB3 (Homo sapiens, UniProt Q16875); assay: PFKFB3 IC50 determination assay (in vitro kinase assay, modified ADP-Glo system); type: biochemical; details: read-out: PFKFB3 IC50, ATP 20 μM (Km), fructose-6-phosphate 2 μM (Km), 25 nM PFKFB3, 2 h, rt

Row | Structure (SMILES) | IC50 [1] [µM] | IC50 [2] [µM]
1 | Cn1ccc2ccc(-c3cc(NC4CCC45CCNCC5)cc4nccnc34)cc21 (centres unmarked) | 1 to 10 | –
2 | Cn1ccc2ccc(-c3cc(NC4CCN(c5cccnc5)C4)cc4nccnc34)cc21 [Example 167, 4-[(3S)-3-{[8-(1-Methyl-1H-indol-6-yl)quinoxalin-6-yl]amino}pyrrolidin-1-yl]pyrimidin-2-ol] | – | 1 to 10
